Drawing on PubChem BioAssay AID2551 (National Center for Advancing Translational Sciences (NCATS), 2010), this text covers activity change, negative = inhibition for six compounds.

Amino acid sequences for entries named in this document (tags omitted). A change or cut given only in a name is not applied to a line headed by its entry.
UniProt P51450: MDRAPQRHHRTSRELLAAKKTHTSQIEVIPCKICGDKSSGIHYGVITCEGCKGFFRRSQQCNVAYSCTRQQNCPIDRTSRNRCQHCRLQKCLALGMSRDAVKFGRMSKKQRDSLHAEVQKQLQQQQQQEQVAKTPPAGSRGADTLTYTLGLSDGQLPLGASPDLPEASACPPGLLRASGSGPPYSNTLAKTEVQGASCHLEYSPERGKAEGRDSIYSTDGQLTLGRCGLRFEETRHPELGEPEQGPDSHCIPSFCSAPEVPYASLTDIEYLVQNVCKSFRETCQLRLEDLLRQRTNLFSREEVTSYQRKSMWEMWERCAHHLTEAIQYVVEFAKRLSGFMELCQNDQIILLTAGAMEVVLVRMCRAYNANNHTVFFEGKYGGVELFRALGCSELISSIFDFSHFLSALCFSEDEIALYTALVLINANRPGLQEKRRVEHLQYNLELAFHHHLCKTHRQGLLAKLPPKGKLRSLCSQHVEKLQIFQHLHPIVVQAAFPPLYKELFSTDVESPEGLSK

Where “and” joins values, the source holds several entries; their conditions need not be identical. Equal values may be shown once. Only a part is listed here, and it is no random draw. Inconclusive results are not listed. Calls of active or inactive are those of the source. Calls come from the whole dose curve; as a rule, active = well fitted inhibition curve with a large enough effect; inconclusive = small, poorly fitted or top-dose-only effect, or effect the other way; inactive = no such curve, though single readings can be large or run the other way.
% is set by controls: 0 for no effect and ±100 for the full control effect.

This experiment has as its target Nuclear receptor ROR-gamma (Mus musculus) (UniProt P51450). Kind of experiment: qHTS for inhibitors of ROR gamma transcriptional activity. Note: nearly all actives have a fitted effect of over 60% in size. Particulars: Drosophila S2 Gal4-RORgamma UAS-luciferase reporter, 20 h; at 53.6 µM (top of the series) unless noted. Background: Quantitative high-throughput screening tests each substance at several concentrations.
Regarding `CN1C2CC(OC(=O)C(CO)c3ccccc3)CC1C1OC12` (stereo unspecified), the activity change, negative = inhibition is inactive: 31.5% and inactive: -19.1%.

For `CN1[C@H]2CC(OC(=O)[C@H](CO)c3ccccc3)C[C@H]1[C@H]1O[C@H]12` (stereo partly specified), the activity change, negative = inhibition was inactive: -2.91% and inactive: -0.274%.

With `CN1[C@@H]2CC(OC(=O)[C@H](CO)c3ccccc3)C[C@@H]1[C@H]1O[C@H]12` (stereo partly specified), the activity change, negative = inhibition was inactive: 2.35%.

Regarding `CN1[C@@H]2CC(OC(=O)[C@@H](CO)c3ccccc3)C[C@@H]1[C@H]1O[C@H]12` (stereo partly specified), the activity change, negative = inhibition is inactive: -8.02% [at 10 µM].

In the case of `CN1[C@@H]2CC(OC(=O)[C@H](CO)c3ccccc3)C[C@H]1[C@@H]1O[C@@H]12` (stereo partly specified), the activity change, negative = inhibition was inactive: 13% and inactive: -23.2%.

`CN1C2CC(OC(=O)C(CO)c3ccccc3)C[C@@H]1[C@H]1OC21` (stereo partly specified): the activity change, negative = inhibition was inactive: -2.23%.
